# Values of other authors, collected in patent US4859707A, “Sulfur-substituted phenylacetamides” (Key Pharmaceuticals, Inc., priority 1983, dated 1989).
# Conditions: humans and most other species studied; cited from earlier work
smiles,measurement,value
"CCN(CC)CC(=O)Nc1c(C)cccc1C [lidocaine, reference compound]",Major pathway of biotransformation,"N-dealkylation followed by secondary oxidation, conjugation, and hydrolysis"
